Measured values taken from paper PMC9234716, “Comparative analysis defines a broader FMRFamide-gated sodium channel family and determinants of neuropeptide sensitivity” (The Journal of Biological Chemistry, 2022).
Like-named read-outs stand apart in the source and are kept apart here.

By UniProt entry, the sequences of proteins in these tests, tags left out. Residues count along the entry.
UniProt A0AAN0NP85, 1-600: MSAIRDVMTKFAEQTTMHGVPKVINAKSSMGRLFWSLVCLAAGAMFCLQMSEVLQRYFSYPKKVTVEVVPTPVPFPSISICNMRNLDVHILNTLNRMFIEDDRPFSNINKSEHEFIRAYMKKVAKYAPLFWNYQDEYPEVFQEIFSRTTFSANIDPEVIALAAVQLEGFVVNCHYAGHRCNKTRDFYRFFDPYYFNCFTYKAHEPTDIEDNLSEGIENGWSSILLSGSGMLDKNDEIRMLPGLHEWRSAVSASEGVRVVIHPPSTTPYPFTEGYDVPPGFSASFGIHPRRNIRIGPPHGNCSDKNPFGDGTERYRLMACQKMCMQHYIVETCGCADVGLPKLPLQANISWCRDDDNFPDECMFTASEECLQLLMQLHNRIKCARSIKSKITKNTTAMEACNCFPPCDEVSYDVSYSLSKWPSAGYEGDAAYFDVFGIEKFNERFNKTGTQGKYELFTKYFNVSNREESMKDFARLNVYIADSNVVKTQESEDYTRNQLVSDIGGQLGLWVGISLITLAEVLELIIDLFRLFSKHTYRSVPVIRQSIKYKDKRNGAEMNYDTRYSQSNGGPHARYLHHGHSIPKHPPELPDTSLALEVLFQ
UniProt Q4H3X6, entry or part of it: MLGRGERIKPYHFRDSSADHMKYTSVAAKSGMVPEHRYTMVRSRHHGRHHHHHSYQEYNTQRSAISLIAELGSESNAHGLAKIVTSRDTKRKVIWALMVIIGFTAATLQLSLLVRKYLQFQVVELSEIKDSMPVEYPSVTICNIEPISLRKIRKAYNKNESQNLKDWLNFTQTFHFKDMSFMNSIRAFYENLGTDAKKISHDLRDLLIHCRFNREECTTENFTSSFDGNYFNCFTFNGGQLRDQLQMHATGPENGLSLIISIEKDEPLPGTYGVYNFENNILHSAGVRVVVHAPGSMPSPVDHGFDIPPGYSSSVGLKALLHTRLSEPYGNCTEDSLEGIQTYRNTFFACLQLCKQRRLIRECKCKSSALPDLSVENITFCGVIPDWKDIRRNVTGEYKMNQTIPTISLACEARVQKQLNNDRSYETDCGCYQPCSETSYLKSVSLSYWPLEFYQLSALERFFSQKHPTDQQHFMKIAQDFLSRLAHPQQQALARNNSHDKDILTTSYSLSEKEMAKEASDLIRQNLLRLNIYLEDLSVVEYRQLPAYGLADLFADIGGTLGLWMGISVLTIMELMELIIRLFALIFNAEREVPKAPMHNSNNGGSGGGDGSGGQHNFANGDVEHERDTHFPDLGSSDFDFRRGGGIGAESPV

Assays:
Capitella FaNaC^52833 = assay: Two-electrode voltage clamp of Xenopus oocytes expressing Capitella FaNaC 52833; type: cell-based, Capitella teleta
Method: (§1) Defolliculated stage V/VI oocytes from X. laevis were commercially acquired (Ecocyte Bioscience) and stored at 18 °C in 50% (in water) Leibovitz’s L-15 medium (Gibco) supplemented with additional 0.25 mg/ml gentamicin, 1 mM L-glutamine, and 15 mM Hepes, pH 7.6. Oocytes were injected with 2 ng cRNA (WT or mutant Aplysia FaNaC) and 2 to 60 ng cRNA (WT C. gigas XM_011442205.2, O. bimaculoides XM_014930938.1, L. gigantea XM_009055314.1_160261, P. fucata pfu_aug2.0_4392.1_09318.t1, C. teleta Capca1_207658, Capca1_52833, Capca1_185559, and Capca1_212912, M. lignano Mlig049925.g2, Mlig051885.g1, and Mlig041003.g1, P. australis g6004.t1 and g5063.t1 and R. norvegicus NP_077068.1 (rat ASIC1a) and respective mutants). Two-electrode voltage clamp experiments were performed 1 to 3 days after injection. The oocyte was placed in an RC-3Z bath (Warner Instruments) and bath solution (NaCl: 96 mM, KCl: 2 mM, CaCl2: 1.8 mM, MgCl2: 1 mM, Hepes: 5 mM; pH: 7.5) was perfused continuously and rapidly switched to bath solution containing peptide ligands via the VCS-8-pinch valve control perfusion system (Warner Instruments). […] Peptides were applied at varying concentrations between 30 nM and 100 μM for concentration-response experiments. […] Current recordings were analyzed in Clampfit 11.1 (Molecular Devices). […]

[1] = molecular target: Malacoceros FaNaC^ON156825 (Malacoceros fuliginosus, UniProt A0AAN0NP85); assay: cell-based
Method: as §1

[2] = tested on: Malacoceros FaNaC^ON156826; assay: Two-electrode voltage clamp of Xenopus oocytes expressing Malacoceros FaNaC ON156826; type: cell-based, Malacoceros fuliginosus; conditions: WT channel, n = 8, mean ± SEM, read-out: EC50 of FMRFa
Method: as §1

Aplysia kurodai FaNaC [3] = molecular target: Aplysia kurodai FaNaC (Aplysia kurodai, UniProt Q4H3X6); assay: cell-based; type: cell-based
Method: (§2) This generated 30 Aplysia FaNaC mutants (e.g., A319Q in Fig. 3A).
(§3) Defolliculated stage V/VI oocytes from X. laevis were commercially acquired (Ecocyte Bioscience) and stored at 18 °C in 50% (in water) Leibovitz’s L-15 medium (Gibco) supplemented with additional 0.25 mg/ml gentamicin, 1 mM L-glutamine, and 15 mM Hepes, pH 7.6. Oocytes were injected with 2 ng cRNA (WT or mutant Aplysia FaNaC) and 2 to 60 ng cRNA (WT C. gigas XM_011442205.2, O. bimaculoides XM_014930938.1, L. gigantea XM_009055314.1_160261, P. fucata pfu_aug2.0_4392.1_09318.t1, C. teleta Capca1_207658, Capca1_52833, Capca1_185559, and Capca1_212912, M. lignano Mlig049925.g2, Mlig051885.g1, and Mlig041003.g1, P. australis g6004.t1 and g5063.t1 and R. norvegicus NP_077068.1 (rat ASIC1a) and respective mutants). Two-electrode voltage clamp experiments were performed 1 to 3 days after injection. The oocyte was placed in an RC-3Z bath (Warner Instruments) and bath solution (NaCl: 96 mM, KCl: 2 mM, CaCl2: 1.8 mM, MgCl2: 1 mM, Hepes: 5 mM; pH: 7.5) was perfused continuously and rapidly switched to bath solution containing peptide ligands via the VCS-8-pinch valve control perfusion system (Warner Instruments). […] Peptides were applied at varying concentrations between 30 nM and 100 μM for concentration-response experiments. The oocytes were clamped at −40 mV for rat ASIC1a experiments and −60 mV for all others with an Oocyte Clamp OC-725C amplifier (Warner Instruments), LIH 8 + 8 digitizer (HEKA Elektronik) at 0.5 or 1 KHz sampling and 100 Hz filtering. Current recordings were analyzed in Clampfit 11.1 (Molecular Devices).
(§4) After retrieving current amplitude from pClamp, all data analyses were performed in Prism v9 (GraphPad Software). For peptide or proton concentration-response data, peak current amplitude was plotted against peptide concentrations or pH and fitted with the Hill equation for each recording. These were averaged to give the reported means ± SEM in the main text. For display in figures, a single fit to the average normalized responses (±SEM) is shown. Multiple comparisons were made with one-way ANOVA with Dunnett’s comparison to a control value (e.g., comparing with WT) or with Tukey’s test for multiple comparisons.

Aplysia kurodai FaNaC [4] = assay: cell-based; type: cell-based
Method: as §2, §3, §4

[5] = tested on: three platyhelminth (Macrostomum lignano) and two phoronid (Phoronis australis) genes; assay: Peptide responses of oocytes injected with platyhelminth and phoronid DEG/ENaC RNAs; type: cell-based; conditions: RNAs injected alone or in combination; n = 4–6
Excerpt: We also tested three platyhelminth (Macrostomum lignano) and two phoronid (Phoronis australis) genes that appear in a small branch closely related to the FaNaC branch (lower clade in Fig. 1A). We injected oocytes with these RNAs either alone or in combination, in case of obligate heteromerization, but with these oocytes, we observed no response to FMRFa or YMRFa (from Macrostomum propeptide Mlig001796.g3), FVRIa (from Phoronis propeptide DN252244_c0_g1_i1), or […]a or AYGSMPWa (both from Macrostomum propeptide Mlig032062.g1; n = 4–6). […] Whether this reflects the emergence of FaNaCs after the lineage to Annelida + Brachiopoda + Molluska split from the lineage to Platyhelminthes (and were lost in Phoronida) or whether FaNaCs emerged earlier and FMRFa sensitivity was lost in these platyhelminth and phoronid channels would require experiments on more channels.

Helix aspersa FaNaC = tested on: Helix aspersa FaNaC; parameters: method as in PMID 15843991, PMID 26867576; conditions: read-out: FMRFa EC50; cited from earlier work
Helisoma trivolvis FaNaC = conditions: cited from earlier work
[6] = tested on: MGIC Platynereis dumerilii; parameters: method as in PMID 29688813; conditions: four Platynereis sequences heterologously expressed; cited from earlier work

With `CSCC[C@H](NC(=O)[C@@H](N)Cc1ccccc1)C(=O)N[C@@H](CCCNC(=N)N)C(=O)N[C@@H](Cc1ccccc1)C(N)=O` [FMRFa, Phe-Met-Arg-Phe-amide] the FMRFa-gated currents (Capitella FaNaC^52833; R278Q and G306T mutations) was “abolished”, the EC50 (Capitella FaNaC^52833; WT channel, Xenopus oocytes, n = 7, mean ± SEM, read-out: EC50 of FMRFa) was 0.35 ± 0.15 µM and the EC50 [1] was 0.23 ± 0.06 µM. For the same compound, the EC50 [2] was 11 ± 3 µM, the “current activated by FMRFa” value (Aplysia kurodai FaNaC [3]; F231G mutant, 100 μM FMRFa) was “small currents” and the EC50 (Aplysia kurodai FaNaC [3]; FMRFa EC50, S184A mutant) was ~30 µM. For the same compound, the EC50 (Aplysia kurodai FaNaC [3]; FMRFa EC50, WT, n = 5) was 3.4 ± 0.4 µM, the “effect of mutation on FMRFa potency” value (Aplysia kurodai FaNaC [3]; R288Q mutant) was “abolished FMRFa potency” and the “I3 μM/I30 μM ratio of FMRFa potency” value (Aplysia kurodai FaNaC [3]; WT, 3 μM FMRFa-gated current amplitude/30 μM FMRFa-gated current amplitude, n = 14) was 0.64 ± 0.04. The “current activated by FMRFa” value (Aplysia kurodai FaNaC [4]; I281T, G316T, R324N, S447V and R529Q mutants, 100 μM FMRFa) was “negligible, if any, current”, the “activation by FMRFa” value (Aplysia kurodai FaNaC [4]; seven mutants (S184A, R324N, G270D/Y272L, I281T/S284D, S314F/G316T, S447V/W449F, R529Q/L530V/N531S), 3 or 30 μM FMRFa) was “not significantly activated” and the “current response to peptide” value [5] was “no response”. The EC50 (Helix aspersa FaNaC) was 3 µM, the EC50 (Helisoma trivolvis FaNaC; Helisoma FaNaC with 32 aa segment from Helix FaNaC, read-out: FMRFa sensitivity) was 3 µM and the EC50 (Helisoma trivolvis FaNaC; read-out: FMRFa EC50) was 100 µM. The “response to FMRFa” value [6] was “did not respond”.
